Source: PubChem BioAssay (NCATS)
This is a selection; strong and weak results do not stand in their true shares. Results filed as inconclusive are left out. Active and inactive are the calls of the source. Unless noted, calls follow the shape of the dose curve; as a rule, active = well fitted curve in the direction sought with a large enough effect; inconclusive = small, poorly fitted or top-dose-only effect, or another doubt; inactive = no such curve, though single readings can be large; an effect the other way counts as inactive or inconclusive.

By UniProt entry, the sequences of proteins in these tests, tags left out.
UniProt P63096, whole entry: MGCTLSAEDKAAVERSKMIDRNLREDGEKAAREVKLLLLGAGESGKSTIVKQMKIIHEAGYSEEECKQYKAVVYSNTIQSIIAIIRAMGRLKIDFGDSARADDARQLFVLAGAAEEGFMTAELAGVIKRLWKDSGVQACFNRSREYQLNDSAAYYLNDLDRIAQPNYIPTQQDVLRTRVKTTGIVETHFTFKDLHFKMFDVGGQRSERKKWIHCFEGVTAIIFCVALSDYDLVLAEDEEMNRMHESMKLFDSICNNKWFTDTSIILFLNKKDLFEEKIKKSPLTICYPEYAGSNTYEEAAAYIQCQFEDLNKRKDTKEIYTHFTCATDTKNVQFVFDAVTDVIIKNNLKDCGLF
UniProt P08482, whole entry: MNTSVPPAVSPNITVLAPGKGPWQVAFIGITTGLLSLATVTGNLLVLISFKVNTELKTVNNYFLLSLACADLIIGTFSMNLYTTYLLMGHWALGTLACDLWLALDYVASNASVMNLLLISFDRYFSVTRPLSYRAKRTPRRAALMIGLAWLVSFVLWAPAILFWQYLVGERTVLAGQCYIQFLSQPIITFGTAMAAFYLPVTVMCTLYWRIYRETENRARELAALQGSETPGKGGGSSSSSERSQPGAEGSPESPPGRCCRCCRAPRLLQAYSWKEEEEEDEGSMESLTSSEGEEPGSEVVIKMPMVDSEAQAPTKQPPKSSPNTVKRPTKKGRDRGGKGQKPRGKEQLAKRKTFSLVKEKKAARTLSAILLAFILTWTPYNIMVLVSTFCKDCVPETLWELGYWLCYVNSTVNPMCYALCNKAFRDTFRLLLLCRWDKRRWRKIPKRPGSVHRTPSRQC

Columns and labels:
[1] = target: Guanine nucleotide-binding protein G(i) subunit alpha-1 (Homo sapiens) (UniProt P63096); assay: qHTS Assay for Inhibitors of RGS12 GoLoco Motif Activity (Green Fluorophore) (AID 879); settings: Galphai1/FITC-RGS12 GoLoco peptide, fluorescence polarization; at 57.1 µM (top of the series);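 also: 0% = labeled peptide with Gαi1 and full inhibition = labeled peptide alone without protein; negative values mean loss of peptide binding seen as reduced polarization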
How it was run: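 A drop in FITC polarization marked displacement of the FITC-tagged RGS12 GoLoco peptide (10 nM) from Gαi1 (50 nM). Compounds were incubated 10 min at room temperature in Tris pH 7.5 buffer containing 150 mM NaCl, 0.1 mM GDP and 0.05% NP40; unlabeled peptide titration served as control.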

[2] = qHTS Assay for Identification of Small Molecule Antagonists for NFkB Signaling Pathway (AID 895; active = well fitted inhibition curve with a large enough effect in the signal ratio, with a control signal flat, not every such curve was filed as active; the % refers to the signal ratio; also: % is scaled to controls: 0 for no effect and ±100 for the full control effect); settings: NFkB beta-lactamase reporter cells, FRET ratio 460/530, stimulated with 10 pM TNF alpha; at 38.3 µM (top of the series)
[3] = target: Muscarinic acetylcholine receptor M1 (Rattus norvegicus) (UniProt P08482); assay: qHTS Assay for Antagonists of Acetylcholine Muscarinic M1 Receptor: Kinetic Measurement of Intracellular Calcium Response (AID 943); settings: M1-expressing cells, kinetic intracellular calcium fluorescence; at 35.3 µM (top of the series);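 also: Fluo-4 calcium signal as peak divided by basal fluorescence over 4 min; nearly all actives have a fitted effect of over 75% in size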

N#[O+].[C-]#N.[C-]#N.[C-]#N.[C-]#N.[C-]#N.[Fe+2].[Na+].[Na+]
inactive: activity, negative = inhibition [1] 13.8% | activity change, negative = inhibition [2] -0.111% | activity change, negative = inhibition [3] -43.8%
